System: EGFRt-positive T cells
Assay: ADCC assay with Cetuximab
Assay type: cell-based, human
Settings: 50 μg/ml Cetuximab, effector to target cell ratio 20:1, SLAMF7−/low vs bulk PBMC
Protocol: PBMC were sorted for SLAMF7-negativity (right) or were left unsorted (left). […] The target T cells were previously stained with eFluor 670. The number of remaining target cells was measured by flow cytometry. Data was collected as technical triplicates.
The mechanisms that leads to CAR-T cell depletion through the EGFRt marker are ADCC and CDC. For ADCC to occur efficiently, Fc-receptor expressing PBMC (e.g. NK cells, monocytes and macrophages) are required. […] Therefore, it was tested if SLAMF7^−/low PBMC are similarly effective at conferring ADCC as bulk unselected PBMC. PBMC were obtained from healthy donors, and SLAMF7^+/high lymphocytes were depleted using immunomagnetic bead selection. Then, ADCC assays were performed using either SLAMF7^−/low PBMC or bulk unselected PBMC as effector cells. […] Without Cetuximab, no ADCC occurred. Without the EGFRt marker, no ADCC occurred. […] However, because fratricide of SLAMF7^−/high lymphocytes will likely lead to lower absolute lymphocyte counts, ADCC may occur with a slower kinetic.

In the case of “Cetuximab: anti-EGFR monoclonal antibody”, the “ADCC depletion of EGFRt-positive SLAMF7 CAR-T cells” value is reported as “similarly effective with SLAMF7^−/low PBMC and bulk unselected PBMC”.
